For one compound, inhibition results are on record in PubChem BioAssay AID743257 (The Scripps Research Institute Molecular Screening Center, 2014).

Amino acid sequences for entries named in this document (tags omitted). A change or cut given only in a name is not applied to a line headed by its entry.
UniProt P78536: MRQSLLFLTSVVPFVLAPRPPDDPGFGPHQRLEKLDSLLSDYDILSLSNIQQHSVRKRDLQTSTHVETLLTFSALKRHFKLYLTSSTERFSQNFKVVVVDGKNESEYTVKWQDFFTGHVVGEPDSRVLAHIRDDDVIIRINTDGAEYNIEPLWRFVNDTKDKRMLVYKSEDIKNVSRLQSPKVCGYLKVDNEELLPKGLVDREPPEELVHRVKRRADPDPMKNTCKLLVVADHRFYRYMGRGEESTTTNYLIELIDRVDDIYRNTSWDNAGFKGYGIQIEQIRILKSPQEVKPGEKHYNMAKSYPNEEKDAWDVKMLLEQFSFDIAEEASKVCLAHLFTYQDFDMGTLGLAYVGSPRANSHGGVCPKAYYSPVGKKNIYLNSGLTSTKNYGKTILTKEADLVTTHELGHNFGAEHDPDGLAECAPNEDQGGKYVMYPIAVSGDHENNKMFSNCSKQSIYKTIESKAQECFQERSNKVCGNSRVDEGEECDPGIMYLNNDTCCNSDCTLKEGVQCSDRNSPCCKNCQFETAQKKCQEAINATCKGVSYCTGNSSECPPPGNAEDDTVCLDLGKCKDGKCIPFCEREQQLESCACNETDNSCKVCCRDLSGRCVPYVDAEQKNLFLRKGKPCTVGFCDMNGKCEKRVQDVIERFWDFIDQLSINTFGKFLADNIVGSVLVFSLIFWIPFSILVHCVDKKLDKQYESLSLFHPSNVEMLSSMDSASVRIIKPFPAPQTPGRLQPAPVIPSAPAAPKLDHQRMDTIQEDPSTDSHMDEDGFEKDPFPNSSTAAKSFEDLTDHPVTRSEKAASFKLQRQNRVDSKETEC

One may read the inhibition as the drop in the measured response relative to a control, in per cent.

The structures appear in SMILES notation. Only a part is listed here, and it is no random draw. Calls of active or inactive are those of the source.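 How the source made its calls: active means mean inhibition across replicates above the hit cutoff set in the primary screen (cut at about 8.5% in these data); inactive means the rest.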

The target of this experiment is Disintegrin and metalloproteinase domain-containing protein 17 (Homo sapiens) (UniProt P78536). As to the kind of experiment: ADAM17 inhibitors, hit retest, confirmation, biochemical, QFRET peptide cleavage (AID 743257).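 Further: 0% = DMSO wells and 100% = marimastat wells.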 The settings on record: recombinant ADAM17, EDANS/DABCYL QFRET peptide cleavage; at 6.95 µM; active compounds read high. The gist of the method:
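test system = ADAM17 protease | dosing = 6.95 µM compound, single dose | timing = 30 min preincubation, 3 h reaction | measured by = fluorescence at ex 359 nm, em 460 nm | measure = percent inhibition | benchmarks = DMSO and marimastat controls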
Consider `O=[N+]([O-])c1cc([N+](=O)[O-])c(CCNc2ccccc2)c([N+](=O)[O-])c1`, for which the inhibition is inactive: 2.66%.
